Yeast mating assay B: variants of the scFv Ab-14

Antigen: PDVDLGDISGINAS, a 14-residue peptide of the SARS-CoV-2 spike HR2 region.

The variants keep the heavy chain, the linker and the frameworks of Ab-14 (scFv order VH, three GGGGS repeats, VL).
VH: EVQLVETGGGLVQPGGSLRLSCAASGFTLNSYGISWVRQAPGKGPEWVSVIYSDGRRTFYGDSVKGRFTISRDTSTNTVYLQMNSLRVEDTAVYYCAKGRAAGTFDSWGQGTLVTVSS
VL: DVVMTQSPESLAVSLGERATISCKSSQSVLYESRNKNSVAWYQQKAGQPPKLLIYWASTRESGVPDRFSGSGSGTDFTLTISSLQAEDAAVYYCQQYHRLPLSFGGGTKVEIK

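The parent was found by panning a naive human phage display library on the peptide. These sequences belong to a second round, designed from the earlier measurements on random variants of the parent. Their group label is 14L_En_HC (En: ensemble of fine-tuned language models; HC: hill climbing; a sequence that several methods proposed may carry one label only). In AlphaSeq, yeast of one mating type display the scFv and yeast of the other type display the target. The frequency of each diploid, read from paired DNA barcodes, reflects how well the two displayed proteins bind. Scores were corrected for input abundance and mapped to Kd with protein pairs of known affinity run in the same pool. Mating was done six times.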

Variants are written as CDR1, CDR2 and CDR3 of the light chain (limits as in the source). Parent: KSSQSVLYESRNKNSVA, WASTRES, QQYHRLPLS.
The read-out is the apparent dissociation constant on a log10 scale (nM): the lower, the stronger.
"ND" marks a missing value. The strain was present, yet no cells mated with the target were sequenced in that replicate, which points to weak or no binding.
Background: pairings of all light chain designs with three empty control strains gave a value in 4% of cases (median 2.64, 5th percentile 1.59). Values in that range, when seen in few replicates, are hard to tell from nonspecific mating. For each scFv, signals with the empty controls are counted beside the result, with their mean in brackets.

| CDR-L1 | CDR-L2 | CDR-L3 | replicates, log10 nM | control signals |
|---|---|---|---|---|
| KLSATYRYESQNKNSIA | EMTTREK | QCYHRLPLS | 2.03 / 1.28 / ND / 1.79 / 2.54 / 1.97 | 0 of 18 |
| MFSQTVMYESTMRNNVA | QTSTRES | QQYDRLPLS | ND / ND / ND / 1.22 / ND / ND | 0 of 18 |
| KIQQAVNYLSRVMNSVA | DNSTRES | QQYFRLPLS | -0.04 / -0.14 / -0.09 / -0.19 / -0.30 / -0.10 | 0 of 18 |
| KLSQSVNVTGKNKNSVA | ELSFREK | QQYERLPLS | 0.98 / 0.44 / 0.65 / 1.13 / 0.81 / 1.19 | 4 of 18 (3.32) |
| ILSQMMLTAGNKHSSVA | QANNREN | QQYHRLPLS | ND / 2.48 / 1.47 / 1.71 / 0.95 / 1.96 | 0 of 18 |
| TLSQMWGMESHHKNNVA | QEETREK | QQYFRLPIS | 1.22 / 0.94 / 1.04 / 0.87 / 1.05 / 0.66 | 0 of 18 |
| KLSQYSGGESRNKSSLA | DNSTRES | QQYHRLPLS | 1.30 / 0.95 / 0.96 / 2.32 / 1.17 / 1.29 | 0 of 18 |
| KISMSYRYESQQKNSIA | EMSRREN | QQYHRLPLS | 0.44 / -0.08 / -0.13 / -0.18 / 0.63 / 0.23 | 0 of 18 |
| KIMQSLNYESFNKDSVA | GQETRER | QSYHRLPLS | 1.71 / 1.19 / 0.85 / 0.85 / 1.39 / 1.15 | 1 of 18 (3.63) |
| QLLMATMQGQYNRNSVA | HAQTRND | QSYHRLPLS | ND / 1.98 / 1.26 / 1.87 / 0.88 / 1.33 | 0 of 18 |
| TISGMANYESTNKNSVA | ELTTRGK | QQYERLPLS | 2.30 / 2.18 / 1.65 / 2.29 / 2.58 / 2.27 | 0 of 18 |
| KLSISYLFESQEKNSIA | ENSTREK | QHYHRLPLS | ND / 2.55 / 1.55 / 1.85 / 1.27 / 2.39 | 1 of 18 (2.53) |
| MFSQTVMYESTMRNNVA | QTSTREE | QQYDHLPLS | 0.39 / 0.33 / 0.41 / 0.24 / 0.22 / 0.50 | 1 of 18 (2.48) |
| KISQMFNVGTKNTNSLA | EMNTRGG | QDYHRLPLS | 1.44 / 1.71 / 1.56 / 1.18 / 1.14 / 1.74 | 2 of 18 (2.65) |
| KLSMSMLLESFHKNSVA | ENSTREA | QHYHRLPLS | ND / 1.98 / 1.55 / 3.19 / ND / 1.25 | 1 of 18 (2.27) |
| KISMLTLYESVNKNSVA | EMSTRPS | QSYHRLPLS | 2.40 / 1.36 / 1.13 / 2.05 / 2.23 / 2.10 | 1 of 18 (2.53) |
| TIGQVMNYESRNTNSVA | QTSTREE | QDYDRLPLS | 1.04 / ND / ND / 2.19 / 1.26 / ND | 0 of 18 |
| KISQAVNYLQRVMNSVA | DNSTRES | QQYFRLPLS | 0.51 / 0.11 / 0.31 / -0.08 / 0.02 / 0.45 | 0 of 18 |
| KISQMSTIESIMHNSVA | QTSTRES | QQYDRLPLS | ND / 2.28 / 1.10 / 1.82 / 2.18 / 3.27 | 0 of 18 |
| TLGDVTRMESNKKNSIA | DMSNRAD | QQYHRLPLE | 0.18 / 0.14 / 0.13 / 0.21 / 0.13 / 0.23 | 2 of 18 (3.37) |
| KLLQTVMNETRNRNNVA | HMTMRED | QQYHRLPLS | 0.54 / 0.85 / 0.92 / 0.84 / 0.66 / 0.50 | 1 of 18 (1.50) |
| QLLMATMQGYYNRNSVA | HAETRED | QSYHRLPLS | 1.78 / 1.49 / 1.74 / 1.75 / 2.15 / 2.39 | 0 of 18 |
| KLSESAHFESRKKNNVA | ENSTRES | QQYYHLPLS | ND / ND / ND / ND / ND / ND | 0 of 18 |
| ILSQMLLMAGNKHNSVA | QANYRES | QQYHRLPLS | 1.52 / 1.95 / 0.86 / 1.46 / 1.04 / 1.14 | 0 of 18 |
| MFSQSVMTGSFMRNSVA | QTTTREN | QQYDRLPLM | 1.33 / 1.18 / 0.77 / 0.85 / 0.87 / 1.06 | 1 of 18 (2.39) |
| LISGVWDYGSRNYNSVA | QTSTREN | QQYDRLPLE | 1.70 / 1.59 / 1.71 / 1.51 / 2.08 / 1.34 | 2 of 18 (3.03) |
| IITQSVMQESRNKSNVA | NTTERES | QQYDRLPLI | ND / ND / ND / 2.20 / 4.51 / ND | 0 of 18 |
| KLLQNVMTEGRLRNNVA | HMTMRED | QQYWRLPLS | 1.97 / 2.21 / 2.77 / 2.04 / 2.31 / 3.14 | 0 of 18 |
| HLSGLMTWESKAKNSVA | QSNTRAE | QQYHRLPLS | 1.21 / 1.34 / 0.83 / 0.84 / 0.79 / 0.73 | 0 of 18 |
| HISMMVGTKGYAKNSVA | NEETRAD | QQYHRLPLS | 0.55 / 0.18 / 0.18 / 0.13 / 0.08 / 0.26 | 0 of 18 |
| MISQSWLYGSRARNSVA | QTSTRES | QQYDRLPLS | 1.30 / 0.84 / 1.06 / 0.95 / 1.00 / 1.34 | 2 of 18 (2.75) |
| MISDLMLYGSRAKNPIA | NASTREY | QQYHRLPLE | 0.61 / 0.67 / 0.52 / 0.21 / 0.57 / 0.56 | 0 of 18 |
| KVSDSAAFLSRNRNSVA | DNSTRGS | QQYHRLPLS | 0.15 / 0.00 / 0.38 / -0.13 / -0.02 / 0.27 | 0 of 18 |
| KLSIIGLHESIDKKSIA | ERSTREN | QQYHRLPLS | 0.10 / 0.68 / 1.37 / 0.77 / 0.69 / 1.09 | 0 of 18 |
| IITQSVMQESRNKSNVA | NTEERES | QQYDRLPLI | 1.52 / 1.30 / 1.79 / 1.75 / 1.33 / 1.82 | 0 of 18 |
| TLTQTVGMESHNKNSVA | DLSTRGS | QQYHRLPLS | 0.66 / 0.59 / 0.45 / 0.51 / 0.59 / 0.98 | 1 of 18 (2.93) |
| KLTMMYQHTSKNKNNIA | ERSTREE | QQYHHLPLS | 0.05 / -0.19 / -0.15 / -0.08 / -0.15 / 0.12 | 1 of 18 (4.04) |
| MISESVMYESRNRNSVA | DHSTRED | QCYDRLPLS | 1.07 / 1.37 / 0.94 / 1.53 / 1.74 / 1.45 | 0 of 18 |
| TISYSAMMTGLNRNSVA | QAEERLE | QQYNRLPLS | 0.89 / 0.34 / 0.95 / 0.69 / 0.48 / 0.56 | 0 of 18 |
| KVNQLMNLEQMNIKSVA | HTSTREN | QQYHRLPLS | 0.39 / 0.45 / 0.24 / 0.07 / -0.28 / 0.19 | 0 of 18 |
| TLSQMTDLESVHKNSIA | DLMTRES | QQYHRLPLS | 0.33 / 0.41 / 0.57 / 0.37 / 0.37 / 0.43 | 2 of 18 (2.00) |
| TISQSAQQELHNKNSVA | DLNVRGS | QQYDRLPLS | 0.58 / 0.44 / -0.20 / 0.02 / 0.02 / 0.32 | 0 of 18 |
| KLSATYRYESQNSNSIA | EMSTRES | QCYHRLPLS | 0.85 / 0.75 / 1.00 / 0.90 / 0.26 / 1.43 | 1 of 18 (2.39) |
| KISQMYRYEQQNSSSIA | EASTRLN | QSYHRLPLS | 2.43 / 1.78 / 1.36 / 1.46 / 1.85 / 1.73 | 2 of 18 (2.43) |
| HISYSMEHLSKNKNSVA | NQQTRES | QQYHRLPLS | 0.34 / 0.58 / 0.36 / 0.80 / 0.11 / 0.70 | 0 of 18 |
| NVGQSMDGLSRNKNSVA | HQSTRED | QHYHRLPLS | 2.13 / 1.31 / 2.08 / 1.07 / 2.83 / 1.80 | 1 of 18 (3.35) |
| KLGQMTGIETHNKNSLA | DANRRES | QQYHRLPLS | 0.82 / 0.20 / 0.50 / 0.43 / 0.62 / 0.68 | 0 of 18 |
| MFSQLTYMGTRARNAVA | QAETRVN | QQYHHLPLI | 1.73 / 1.86 / 2.22 / 1.99 / 2.27 / 1.30 | 0 of 18 |
| KLRQSTVIESFNKNNVA | EMTTREY | QSYDRLPLS | 2.00 / 2.08 / 2.14 / 3.01 / 2.23 / 2.52 | 0 of 18 |

Top 8 of the variants detected in all replicates, tightest first:

CDR-L1,CDR-L2,CDR-L3,"replicates, log10 nM",control signals
KIQQAVNYLSRVMNSVA,DNSTRES,QQYFRLPLS,-0.04 / -0.14 / -0.09 / -0.19 / -0.30 / -0.10,0 of 18
KLTMMYQHTSKNKNNIA,ERSTREE,QQYHHLPLS,0.05 / -0.19 / -0.15 / -0.08 / -0.15 / 0.12,1 of 18 (4.04)
KVSDSAAFLSRNRNSVA,DNSTRGS,QQYHRLPLS,0.15 / 0.00 / 0.38 / -0.13 / -0.02 / 0.27,0 of 18
KISMSYRYESQQKNSIA,EMSRREN,QQYHRLPLS,0.44 / -0.08 / -0.13 / -0.18 / 0.63 / 0.23,0 of 18
TLGDVTRMESNKKNSIA,DMSNRAD,QQYHRLPLE,0.18 / 0.14 / 0.13 / 0.21 / 0.13 / 0.23,2 of 18 (3.37)
KVNQLMNLEQMNIKSVA,HTSTREN,QQYHRLPLS,0.39 / 0.45 / 0.24 / 0.07 / -0.28 / 0.19,0 of 18
TISQSAQQELHNKNSVA,DLNVRGS,QQYDRLPLS,0.58 / 0.44 / -0.20 / 0.02 / 0.02 / 0.32,0 of 18
KISQAVNYLQRVMNSVA,DNSTRES,QQYFRLPLS,0.51 / 0.11 / 0.31 / -0.08 / 0.02 / 0.45,0 of 18

The authors' rule: three or more of the six replicates give a measured affinity, fewer mean a poor binder.
Values of this round are not directly comparable with the first-round values of the same sequences.
The parent sequence was in this pool as ten entries: three were never detected, three once, and four in most replicates, with averages from 0.34 to 2.37.

Values reported by Li et al. 2023, doi:10.1038/s41467-023-39022-2 (FLAb copy).